Experimental findings from patent US10011599B2 (priority 2013, dated 2018) are described below.

Assay [1] deals with phospho-ERK1/2 in A375 cells. In words: cells. To be noted: Homo sapiens, A-375, 3 h, read-out: A375 ICW IC50.
A further assay has as its system A375 cells. The assay is described as follows: cells. To be noted: Homo sapiens, A-375, 72 h, read-out: A375 XTT IC50 uM.

pIC50: −log10 of the molar value.

As for `COCCN1CCC(n2c(C)nc3cnc4cc(F)c(-c5ccc(Oc6ncccn6)cc5Cl)cc4c32)CC1` [Example 2, 8-(2-chloro-4-(pyrimidin-2-yloxy)phenyl)-7-fluoro-1-(1-(2-methoxyethyl)piperidin-4-yl)-2-methyl-1H-imidazo[4,5-c]quinoline], in assay [1], the pIC50 is 5.49. In the assay with A375 cells, the IC50 is 2.41 µM.

Turning to `Cc1nc2cnc3cc(F)c(-c4ccc(Oc5ncccn5)cc4Cl)cc3c2n1C1CCN(CCO)CC1` [Example 3, 2-(4-(8-(2-chloro-4-(pyrimidin-2-yloxy)phenyl)-7-fluoro-2-methyl-1H-imidazo[4,5-c]quinolin-1-yl)piperidin-1-yl)ethanol], the pIC50 in assay [1] is 6.19. Also, the IC50 with A375 cells turned out to be 0.368 µM.

For the compound `Cc1nc2cnc3cc(F)c(-c4ccc(Oc5ncccn5)cc4Cl)cc3c2n1C1CCN(CC(N)=O)CC1` [Example 13, 2-(4-(8-(2-chloro-4-(pyrimidin-2-yloxy)phenyl)-7-fluoro-2-methyl-1H-imidazo[4,5-c]quinolin-1-yl)piperidin-1-yl)acetamide], in assay [1], the pIC50 was 5.73. For the same compound, the IC50 in the assay on A375 cells was found to be 1.11 µM.

Turning to `Cc1ccnc(Oc2ccc(-c3cc4c(cc3F)ncc3ncn(C5(C)CCN(CCO)CC5)c34)c(Cl)c2)n1` [Example 15, 2-(4-(8-(2-chloro-4-((4-methylpyrimidin-2-yl)oxy)phenyl)-7-fluoro-1H-imidazo[4,5-c]quinolin-1-yl)-4-methylpiperidin-1-yl)ethanol], the negative logarithm of the IC50 (pIC50) in assay [1] was 6.93. The IC50 in the assay on A375 cells came to 0.088 µM.

In the case of `Cc1nc2cnc3cc(F)c(-c4ccc(Oc5ncccn5)cc4Cl)cc3c2n1C1CCN(C(C)CO)CC1` (stereo not drawn) [Example 16, 2-(4-(8-(2-chloro-4-(pyrimidin-2-yloxy)phenyl)-7-fluoro-2-methyl-1H-imidazo[4,5-c]quinolin-1-yl)piperidin-1-yl)propan-1-ol], the pIC50 in assay [1] is 6.18. For the same compound, in the assay with A375 cells, the half-inhibitory concentration (IC50) is 0.587 µM.

For `CC1(n2cnc3cnc4cc(F)c(-c5ccc(Oc6ncccn6)cc5Cl)cc4c32)CCN(CCO)CC1` [Example 17, 2-(4-(8-(2-chloro-4-(pyrimidin-2-yloxy)phenyl)-7-fluoro-1H-imidazo[4,5-c]quinolin-1-yl)-4-methylpiperidin-1-yl)ethanol], in assay [1], the pIC50 was 6.65. In the assay with A375 cells, the IC50 amounted to 0.132 µM.

For `COc1cc(Oc2nccc(C)n2)ccc1-c1cc2c(cc1F)ncc1ncn(C3(C)CCN(CCO)CC3)c12` [Example 18, 2-(4-(7-fluoro-8-(2-methoxy-4-((4-methylpyrimidin-2-yl)oxy)phenyl)-1H-imidazo[4,5-c]quinolin-1-yl)-4-methylpiperidin-1-yl)ethanol], in assay [1], the negative-log IC50 (pIC50) is 6.61. The half-maximal inhibitory concentration (IC50) in the assay on A375 cells was 0.14 µM.

As for `COc1cc(Oc2ncccn2)ccc1-c1cc2c(cc1F)ncc1ncn(C3(C)CCN(CCO)CC3)c12` [Example 19, 2-(4-(7-fluoro-8-(2-methoxy-4-(pyrimidin-2-yloxy)phenyl)-1H-imidazo[4,5-c]quinolin-1-yl)-4-methylpiperidin-1-yl)ethanol], the pIC50 in assay [1] was 5.77. Further, the IC50 with A375 cells came out at 0.643 µM.

As to `COc1cc(Oc2nccc(C)n2)ccc1-c1cc2c(cc1F)ncc1ncn(C3(C)CCN(C(=O)C(C)O)CC3)c12` (stereo not drawn) [Example 20], the negative logarithm of the IC50 (pIC50) in assay [1] is 6.17. Also, the IC50 in the assay on A375 cells turned out to be 0.683 µM.

Regarding `Cc1ccnc(Oc2ccc(-c3cc4c(cc3F)ncc3ncn(C5(C)CCN(C(=O)C(C)O)CC5)c34)c(Cl)c2)n1` (stereo not drawn) [Example 21, 1-(4-(8-(2-chloro-4-((4-methylpyrimidin-2-yl)oxy)phenyl)-7-fluoro-1H-imidazo[4,5-c]quinolin-1-yl)-4-methylpiperidin-1-yl)-2-hydroxypropan-1-one], the pIC50 in assay [1] is 7.15. In addition, the half-maximal inhibitory concentration (IC50) in the assay with A375 cells came out at 0.085 µM.

`COc1cc(Oc2nccc(C)n2)ccc1-c1cc2c(cc1F)ncc1ncn(C3(C)CCN(C(=O)CO)CC3)c12` [Example 24, 1-(4-(7-fluoro-8-(2-methoxy-4-((4-methylpyrimidin-2-yl)oxy)phenyl)-1H-imidazo[4,5-c]quinolin-1-yl)-4-methylpiperidin-1-yl)-2-hydroxyethanone]: the negative logarithm of the IC50 (pIC50) in assay [1] is 6.66. Further, the IC50 with A375 cells was 0.161 µM.

For `Cc1nc2cnc3cc(F)c(-c4ccc(Oc5ncccn5)cc4Cl)cc3c2n1C1CCN(CC2COC2)CC1` [Example 25, 8-(2-chloro-4-(pyrimidin-2-yloxy)phenyl)-7-fluoro-2-methyl-1-(1-(oxetan-3-ylmethyl)piperidin-4-yl)-1H-imidazo[4,5-c]quinoline], in assay [1], the pIC50 was 5.52. In addition, the IC50 with A375 cells came to 1.72 µM.

For `Cc1ccnc(Oc2ccc(-c3cc4c(cc3F)ncc3ncn(C5(C)CCN(C(=O)CO)CC5)c34)c(Cl)c2)n1` [Example 26, 1-(4-(8-(2-chloro-4-((4-methylpyrimidin-2-yl)oxy)phenyl)-7-fluoro-1H-imidazo[4,5-c]quinolin-1-yl)-4-methylpiperidin-1-yl)-2-hydroxyethanone], the pIC50 in assay [1] was 8.40. Moreover, the IC50 in the assay on A375 cells turned out to be 0.011 µM.

For the compound `CC(O)C(=O)N1CCC(C)(n2cnc3cnc4cc(F)c(-c5ccc(Oc6ncccn6)cc5Cl)cc4c32)CC1` (stereo not drawn) [Example 27, 1-(4-(8-(2-chloro-4-(pyrimidin-2-yloxy)phenyl)-7-fluoro-1H-imidazo[4,5-c]quinolin-1-yl)-4-methylpiperidin-1-yl)-2-hydroxpropan-1-one], in assay [1], the negative-log IC50 (pIC50) was 6.44. For the same compound, the 50% inhibitory concentration (IC50) in the assay with A375 cells came out at 0.362 µM.

Consider `Cc1ccnc(Oc2ccc(-c3cc4c(cc3F)ncc3nc(C)n(C5CCN(C(=O)C(C)O)CC5)c34)c(Cl)c2)n1` (stereo not drawn) [Example 29, 1-(4-(8-(2-chloro-4-((4-methylpyrimidin-2-yl)oxy)phenyl)-7-fluoro-2-methyl-1H-imidazo[4,5-c]quinolin-1-yl)piperidin-1-yl)-2-hydroxypropan-1-one], for which, in assay [1], the pIC50 was 7.09. Also, the IC50 in the assay with A375 cells stood at 0.091 µM.

As to `Cc1ccnc(Oc2ccc(-c3cc4c(cc3F)ncc3nc(C)n(C5CCN(C(N)=O)CC5)c34)c(Cl)c2)n1` [Example 31, 4-(8-(2-chloro-4-((4-methylpyrimidin-2-yl)oxy)phenyl)-7-fluoro-2-methyl-1H-imidazo[4,5-c]quinolin-1-yl)piperidine-1-carboxamide], the pIC50 in assay [1] is 8.22. Also, the IC50 in the assay on A375 cells is 0.0047 µM.

As for `Cc1ccnc(Oc2ccc(-c3cc4c(cc3F)ncc3nc(C)n(C5CCN(S(C)(=O)=O)CC5)c34)c(Cl)c2)n1` [Example 32, 8-(2-chloro-4-((4-methylpyrimidin-2-yl)oxy)phenyl)-7-fluoro-2-methyl-1-(1-(methylsulfonyl)piperidin-4-yl)-1H-imidazo[4,5-c]quinoline], in assay [1], the pIC50 is 7.00. The IC50 with A375 cells came to 0.094 µM.

Consider `Cc1nc2cnc3cc(F)c(-c4ccc(Oc5ncccn5)cc4Cl)cc3c2n1[C@H]1CCN(C(=O)[C@H](C)O)C[C@@H]1F` [Example 95, (S)-1-((3S,4S)-4-(8-(2-chloro-4-(pyrimidin-2-yloxy)phenyl)-7-fluoro-2-methyl-1H-imidazo[4,5-c]quinolin-1-yl)-3-fluoropiperidin-1-yl)-2-hydroxypropan-1-one], for which, in the assay with A375 cells, the 50% inhibitory concentration (IC50) amounted to 0.031 µM.

`Cc1nc2cnc3cc(F)c(-c4ccc(Oc5ncccn5)cc4Cl)cc3c2n1[C@H]1CCN(C(=O)CCO)C[C@@H]1F` [Example 98, 1-((3S,4S)-4-(8-(2-chloro-4-(pyrimidin-2-yloxy)phenyl)-7-fluoro-2-methyl-1H-imidazo[4,5-c]quinolin-1-yl)-3-fluoropiperidin-1-yl)-3-hydroxpropan-1-one]: the IC50 in the assay on A375 cells turned out to be 0.557 µM.
